Data reported in patent US10800752B2, “Substituted naphtho[2,3-b]furans as water-soluble prodrugs for preventing and/or treating cancer” (BOSTON BIOMEDICAL, INC., priority 2015, dated 2020).

How the values were obtained:
Solubility test = conditions: 50 mmol/L glycine buffer solution (pH 2.0), room temperature, 24 hours shaking
[1] = Evaluation of a conversion rate to 2-acetylnaphtho[2,3-b]furan-4,9-dione in human plasma; assay type: in vitro ADME; conditions: 1 umol/L, 37° C., incubation time 120 min
Protocol: For test compounds, the decrease rate of the test compounds and the conversion rate thereof to 2-acetylnaphtho[2,3-b]furan-4,9-dione in human plasma, CD1 mouse plasma, and pH 7.4 phosphate buffer solution were measured.
Test compounds were incubated at the concentration of 1 umol/L in human plasma (cat. no. 12250210, COSMO BIO), CD1 mouse plasma (cat. no. AP3054, KAC), and phosphate buffer solution at 37° C., and removed at predetermined times (0, 5, 10, 30, 60, and 120 minutes). After protein-removing treatment was performed, they are analyzed with LC-MS. It should be noted that the protein-removing treatment used acetonitrile containing: 10% volume of 1 mol/L hydrochloric acid; 1% volume of 46% citric acid; and phenytoin as an internal standard.
The measurement condition of LC-MS is as described below. LC-MS condition column: Kinetex 2.6 u PFP 100 A 50×2.1 mm Column temperature: 40° C. […]
Measurement values are calculated from the peak area ratio in LC-MS between an internal standard material, phenytoin and an active form, 2-acetylnaphtho[2,3-b]furan-4,9-dione, and are expressed in %.
In the same way as Example 6, the incubation time was set as 120 minutes later, and the conversion rate of each of various test compounds to 2-acetylnaphtho[2,3-b]furan-4,9-dione in human plasma, CD1 mouse plasma, and pH 7.4 phosphate buffer solution was measured. […]

Question: What does the source list for CC(=O)c1cc2c(OC(=O)NCCNCC(F)F)c3ccccc3c(OC(=O)NCCNCC(F)F)c2o1.Cl.Cl [Example 44]?
Answer: Solubility in pH 2.0 buffer solution (Solubility test): >5.0 mg/mL; % Measurement value (conversion rate to 2-acetylnaphtho[2,3-b]furan-4,9-dione) [1]: 88%
